Amino acid sequences for entries named in this document (tags omitted). Residues count along the entry.
UniProt Q07820, 171-327: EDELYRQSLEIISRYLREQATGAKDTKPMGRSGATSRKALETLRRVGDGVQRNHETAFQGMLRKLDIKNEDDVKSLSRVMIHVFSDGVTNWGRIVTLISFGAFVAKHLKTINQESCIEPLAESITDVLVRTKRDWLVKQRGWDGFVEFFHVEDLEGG

In publication PMC4033665 (Journal of Medicinal Chemistry, 2014):

Target: human Mcl-1 (Homo sapiens, UniProt Q07820)
Type: binding

In the case of O=C(O)CSc1cc(NC(=O)Cc2ccc(Cl)cc2)c2ccccc2c1O [Compound 28, 2-((4-(2-(4-Chlorophenyl)acetamido)-1-hydroxynaphthalen-2-yl)thio)acetic Acid], the “decreased potency (FP) relative to 26” value is reported as 2 fold.
For O=C(O)CSc1cc(NS(=O)(=O)c2ccc(Oc3ccccc3)cc2)c2ccccc2c1O [Compound 21, 2-((1-Hydroxy-4-(4-phenoxyphenylsulfonamido)naphthalen-2-yl)thio)acetic Acid], the “binding efficiency index (BEI), ratio between pKi and molecular weight” value was 14.0.
